Data on 2 substances can be found in paper PMC3212511.

Chains of the proteins cited; added tags and fusions are not shown.
UniProt P17661, whole entry: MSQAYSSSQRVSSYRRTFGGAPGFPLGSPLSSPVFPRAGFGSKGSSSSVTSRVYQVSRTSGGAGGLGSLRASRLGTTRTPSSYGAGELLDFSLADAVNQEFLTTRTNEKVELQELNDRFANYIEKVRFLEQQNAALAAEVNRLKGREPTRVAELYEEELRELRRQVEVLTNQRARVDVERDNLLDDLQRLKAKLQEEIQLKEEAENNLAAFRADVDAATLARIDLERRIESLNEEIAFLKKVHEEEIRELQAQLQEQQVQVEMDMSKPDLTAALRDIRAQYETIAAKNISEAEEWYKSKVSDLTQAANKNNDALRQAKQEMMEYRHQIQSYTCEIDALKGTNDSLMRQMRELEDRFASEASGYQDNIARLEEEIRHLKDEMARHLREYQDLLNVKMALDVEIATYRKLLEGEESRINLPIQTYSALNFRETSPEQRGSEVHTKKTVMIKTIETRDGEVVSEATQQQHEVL

In the assay the target is human desmin (assembled into filaments in vitro) (human) (UniProt P17661). The assay is described as follows: co-sedimentation; high-speed assay: desmin 0.2 g/l co-assembled with αB-crystallin 0.08 g/l at 44°C (20 mM Tris-HCl pH7.4, 50 mM NaCl, 16 h); 80,000 g, 30 min, 4°C through a 0.85 M sucrose cushion; SDS-PAGE densitometry of pellet and supernatant.

In the case of “CEβ8 αB-crystallin (β8-strand of human αB-crystallin substituted with that of C. elegans HSP12.2)”, the % of αB-crystallin in the high-speed pellet with desmin is > 95%. As for “Δ155–165 αB-crystallin (human αB-crystallin with C-terminal residues 155–165 deleted)”, the % of αB-crystallin in the high-speed pellet with desmin was > 95%.
